From patent US8163952B2, “RAR receptor agonist ligands and use thereof in human medicine and cosmetics” (Galderma Research & Development, priority 2007, dated 2012)

The chains behind the UniProt entries cited, without tags or fusion partners. Residues count along the entry.
UniProt P13631, 185-454 limits assumed: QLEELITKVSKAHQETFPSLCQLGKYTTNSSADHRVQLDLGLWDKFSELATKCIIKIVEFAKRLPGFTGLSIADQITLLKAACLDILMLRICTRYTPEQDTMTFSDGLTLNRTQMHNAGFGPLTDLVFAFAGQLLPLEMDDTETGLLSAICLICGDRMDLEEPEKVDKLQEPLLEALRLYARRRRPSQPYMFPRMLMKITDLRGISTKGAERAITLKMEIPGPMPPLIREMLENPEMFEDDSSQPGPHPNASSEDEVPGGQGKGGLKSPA
UniProt P10276, 183-462 limits assumed: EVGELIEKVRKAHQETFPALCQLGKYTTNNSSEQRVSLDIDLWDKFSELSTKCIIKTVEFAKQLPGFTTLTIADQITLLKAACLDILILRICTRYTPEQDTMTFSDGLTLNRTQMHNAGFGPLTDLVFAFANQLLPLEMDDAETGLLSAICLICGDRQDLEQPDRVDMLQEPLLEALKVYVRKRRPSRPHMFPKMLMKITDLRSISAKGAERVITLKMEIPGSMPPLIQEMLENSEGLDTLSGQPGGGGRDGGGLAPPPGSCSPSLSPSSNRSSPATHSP
UniProt P10826, 154-455 limits assumed: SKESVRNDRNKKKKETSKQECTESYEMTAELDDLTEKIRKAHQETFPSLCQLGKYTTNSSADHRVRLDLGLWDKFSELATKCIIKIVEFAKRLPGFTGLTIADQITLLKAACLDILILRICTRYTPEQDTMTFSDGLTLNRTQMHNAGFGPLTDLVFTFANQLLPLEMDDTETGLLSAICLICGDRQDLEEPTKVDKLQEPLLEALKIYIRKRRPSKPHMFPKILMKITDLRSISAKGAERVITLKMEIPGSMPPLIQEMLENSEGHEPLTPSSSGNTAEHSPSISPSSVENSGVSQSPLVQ

How the values were obtained:
Assay in all cases: Transactivation assay (luciferase reporter, crossed curves vs reference agonist, Schild regression)
Format in all cases: cell-based
RARγ = RARγ (Homo sapiens, UniProt P13631); conditions: HeLa stable transfectants, ERE-βGlob-Luc-SV-Neo reporter and RARγ ER-DBD-puro; 18 hours incubation; apparent Kd; read-out: RARγ Kdapp
Method: (§1) The compounds according to the invention have retinoic acid receptor (RAR) agonist properties. This activity on RARα, β and γ receptors is measured in a transactivation test and quantified by means of the dissociation constant Kdapp (apparent).
(§2) The activation of receptors with an agonist (activator) in HeLa cells leads to the expression of a reporter gene, luciferase, which, in the presence of a substrate, generates light. The activation of the receptors can thus be measured by quantifying the luminescence produced after incubation of the cells in the presence of a reference agonist. Inhibitory products will displace the agonist from its site, thus preventing activation of the receptor. The activity is measured by quantifying the decrease in light produced. This measurement makes it possible to determine the inhibitory activity of the compounds according to the invention.
(§3) In this study, a constant is determined which represents the affinity of the molecules for the receptor. Since this value can fluctuate depending on the basal activity and the expression of the receptor, it is referred to as the Kd apparent (KdApp).
(§4) To determine this constant, “crossed curves” of the test product against a reference agonist, 4-[2-(5,5,8,8-tetramethyl-5,6,7,8-tetrahydronaphthalen-2-yl)propenyl]benzoic acid, are realized in 96-well plates. The test product is used at 10 concentrations and the reference agonist at 7 concentrations. In each well, the cells are in contact with a concentration of the test product and with a concentration of the reference agonist, 4-[2-(5,5,8,8-tetramethyl-5,6,7,8-tetrahydronaphthalen-2-yl)]propenyl]benzoic acid. […]
(§5) These crossed curves make it possible to determine the AC50 values (concentration at which 50% activation is observed) for the reference ligand at various concentrations of test product. These AC50 values are used to calculate the Schild regression by plotting a straight line corresponding to the Schild equation (“Quantitation in receptor pharmacology” Tervy P. Kenakin, Receptors and Channels, 2001, 7, 371-385). […]
(§6) The various dilutions of the test products, of the reference ligand (4-[2-(5,5,5,8-tetramethyl-5,6,7,8-tetrahydronaphthalen-2-yl)propenyl]benzoic acid), of the 100% control (100 nM 4-[2-(5,5,8,8-tetramethyl-5,6,7,8-tetrahydronaphthalen-2-yl)propenyl]benzoic acid) and of the 0% control (500 nM 4-{(E)-3-[4-(4-tert-butylphenyl)-5,5,8,8-tetramethyl-5,6,7,8-tetrahydronaphthalen-2-yl]-3-oxopropenyl}benzoic acid) are added in a proportion of 5 μl per well. […] After 5 minutes, the plates are read using a luminescence reader.

RARα = RARα (Homo sapiens, UniProt P10276); conditions: HeLa stable transfectants, ERE-βGlob-Luc-SV-Neo reporter and RARα ER-DBD-puro; 18 hours incubation; apparent Kd; read-out: RARα Kdapp
Method: as §1, §2, §3, §4, §5, §6

RARβ = RARβ (Homo sapiens, UniProt P10826); conditions: HeLa stable transfectants, ERE-βGlob-Luc-SV-Neo reporter and RARβ ER-DBD-puro; 18 hours incubation; apparent Kd; read-out: RARβ Kdapp
Method: as §1, §2, §3, §4, §5, §6

Row | Molecule | Kd (RARγ) | Kd (RARα) | Kd (RARβ)
1 | CC(C)(C)c1cc(C(O)C#Cc2ccc(C(=O)O)cc2)ccc1N1CCCCC1 (stereo not shown) [Compound of example 5, 4-[3-(3-tert-butyl-4-piperidin-1-ylphenyl)-3-hydroxyprop-1-ynyl]benzoic acid] | 120 nM | – | –
2 | 4-{[tert-butyl(ethylisobutylamino)phenyl]hydroxyprop-1-ynyl}benzoic acid [Compound of example 2] | 120 nM | 3000 nM | 600 nM
